Three compounds from ChEMBL document CHEMBL1144974, “Design, synthesis, and activity of novel cis- and trans-3,6-disubstituted pyran biomimetics of 3,6-disubstituted piperidine as potential ligands for the dopamine transporter” (Bioorg Med Chem Lett, 2003) can be followed below.

By UniProt entry, the sequences of proteins in these tests, tags left out.
UniProt Q9WTR4, whole entry: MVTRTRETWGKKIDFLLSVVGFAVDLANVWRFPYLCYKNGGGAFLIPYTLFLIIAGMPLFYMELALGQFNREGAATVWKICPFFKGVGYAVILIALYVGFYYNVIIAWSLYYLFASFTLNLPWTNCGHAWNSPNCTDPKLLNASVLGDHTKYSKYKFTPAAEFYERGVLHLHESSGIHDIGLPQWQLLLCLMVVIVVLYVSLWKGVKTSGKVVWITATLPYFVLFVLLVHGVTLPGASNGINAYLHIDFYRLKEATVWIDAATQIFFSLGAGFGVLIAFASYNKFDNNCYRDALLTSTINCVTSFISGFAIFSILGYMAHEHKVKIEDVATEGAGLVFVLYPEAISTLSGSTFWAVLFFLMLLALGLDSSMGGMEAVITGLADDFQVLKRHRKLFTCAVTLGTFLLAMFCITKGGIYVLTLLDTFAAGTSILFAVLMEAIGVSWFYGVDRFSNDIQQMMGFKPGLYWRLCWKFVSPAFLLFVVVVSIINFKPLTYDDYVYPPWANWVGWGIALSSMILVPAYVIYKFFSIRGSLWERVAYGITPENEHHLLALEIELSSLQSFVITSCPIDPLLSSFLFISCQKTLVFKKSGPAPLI
UniProt P31652, whole entry: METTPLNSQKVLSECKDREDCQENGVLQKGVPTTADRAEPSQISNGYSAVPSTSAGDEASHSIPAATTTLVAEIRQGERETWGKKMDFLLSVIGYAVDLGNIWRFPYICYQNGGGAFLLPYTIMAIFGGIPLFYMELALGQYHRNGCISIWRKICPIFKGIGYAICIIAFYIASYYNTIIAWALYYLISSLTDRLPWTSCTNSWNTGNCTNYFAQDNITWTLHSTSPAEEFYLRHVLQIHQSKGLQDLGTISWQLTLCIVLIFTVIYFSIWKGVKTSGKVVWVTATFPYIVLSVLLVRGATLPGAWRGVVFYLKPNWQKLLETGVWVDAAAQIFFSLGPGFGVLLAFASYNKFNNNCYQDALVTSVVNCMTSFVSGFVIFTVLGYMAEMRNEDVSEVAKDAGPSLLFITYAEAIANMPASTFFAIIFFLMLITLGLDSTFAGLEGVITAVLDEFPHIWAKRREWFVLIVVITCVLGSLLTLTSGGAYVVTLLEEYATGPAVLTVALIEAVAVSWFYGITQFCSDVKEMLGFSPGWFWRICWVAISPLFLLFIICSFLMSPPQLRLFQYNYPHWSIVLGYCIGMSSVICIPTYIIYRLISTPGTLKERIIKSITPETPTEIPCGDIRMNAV
UniProt P23977, whole entry: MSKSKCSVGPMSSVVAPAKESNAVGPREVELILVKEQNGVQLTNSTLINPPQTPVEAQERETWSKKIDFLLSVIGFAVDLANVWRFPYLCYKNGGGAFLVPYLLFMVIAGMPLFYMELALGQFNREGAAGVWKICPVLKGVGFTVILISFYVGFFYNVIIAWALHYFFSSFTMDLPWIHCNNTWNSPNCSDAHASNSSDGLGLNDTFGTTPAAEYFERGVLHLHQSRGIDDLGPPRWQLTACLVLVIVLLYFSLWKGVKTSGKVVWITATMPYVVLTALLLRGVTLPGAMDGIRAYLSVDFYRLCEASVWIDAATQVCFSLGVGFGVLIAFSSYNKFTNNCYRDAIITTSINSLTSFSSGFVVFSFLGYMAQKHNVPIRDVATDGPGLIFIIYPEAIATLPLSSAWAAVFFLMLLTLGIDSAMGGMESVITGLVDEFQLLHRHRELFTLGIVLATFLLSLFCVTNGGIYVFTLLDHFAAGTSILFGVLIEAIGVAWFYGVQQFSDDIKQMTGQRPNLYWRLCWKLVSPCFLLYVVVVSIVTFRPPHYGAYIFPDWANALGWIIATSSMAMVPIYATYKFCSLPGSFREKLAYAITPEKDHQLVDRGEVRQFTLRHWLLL

What all share (assay type): tissue-based
Test [1] concerns the target Norepinephrine transporter (Rattus norvegicus, UniProt Q9WTR4). Kind of test: Inhibition of binding of [3H]nisoxetine to (NET) norepinephrine transporter in rat striatum. The method in brief: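 Radioligand displacement of [3H]nisoxetine labelling NET; other binding conditions are referred to earlier work. Values are means ± SEM of three independent experiments, each assayed in triplicate.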

Test [2] concerns the target Sodium-dependent serotonin transporter (Rattus norvegicus, UniProt P31652). The experiment in a line: Inhibition of binding of [3H]citalopram to (SERT) serotonin transporter in rat striatum.
Test [3] addresses Sodium-dependent dopamine transporter (Rattus norvegicus, UniProt P23977). The experiment in a line: Inhibition of binding of [3H]WIN-35 428 to (DAT) dopamine transporter in rat striatum.

One may read the IC50 as the midpoint of a concentration-inhibition curve. Low readings indicate inhibition by little substance, high ones a need for much substance.

Regarding `O=[N+]([O-])c1ccc(CNC2CCC(C(c3ccccc3)c3ccccc3)OC2)cc1` (racemic), the figures for the half-inhibitory concentration (IC50) in test [1] and in test [2] were 968 nM and 738 nM, respectively.
The corresponding values for `COc1ccc(CNC2CCC(C(c3ccccc3)c3ccccc3)OC2)cc1` (racemic) are 1550 nM and 1180 nM.
For the compound `N#Cc1ccc(CNC2CCC(C(c3ccccc3)c3ccccc3)OC2)cc1` (racemic), the concentration for half-maximal inhibition (IC50) in test [3] stood at 52.6 nM. This counts as double-digit nanomolar.
